From IntAct's records for PubMed 20554658

B1: Kelch-like protein 9 (Homo sapiens), Q9P2J3 (parent)
chain: MKVSLGNGEMGVSAHLQPCKAGTTRFFTSNTHSSVVLQGFDQLRIEGLLCDVTLVPGDGDEIFPVHRAMMASASDYFKAMFTGGMKEQDLMCIKLHGVNKVGLKKIIDFIYTAKLSLNMDNLQDTLEAASFLQILPVLDFCKVFLISGVSLDNCVEVGRIANTYNLIEVDKYVNNFILKNFPALLSTGEFLKLPFERLAFVLSSNSLKHCTELELFKAACRWLRLEDPRMDYAAKLMKNIRFPLMTPQDLINYVQTVDFMRTDNTCVNLLLEASNYQMMPYMQPVMQSDRTAIRSDSTHLVTLGGVLRQQLVVSKELRMYDERAQEWRSLAPMDAPRYQHGIAVIGNFLYVVGGQSNYDTKGKTAVDTVFRFDPRYNKWMQVASLNEKRTFFHLSALKGHLYAVGGRSAAGELATVECYNPRMNEWSYVAKMSEPHYGHAGTVYGGLMYISGGITHDTFQNELMCFDPDTDKWMQKAPMTTVRGLHCMCTVGDKLYVIGGNHFRGTSDYDDVLSCEYYSPTLDQWTPIAAMLRGQSDVGVAVFENKIYVVGGYSWNNRCMVEIVQKYDPEKDEWHKVFDLPESLGGIRACTLTVFPPEENPGSPSRESPLSAPSDHS

Variants of: B1
Details: with cul3_human CUL3, Q13618

| effect of a mutation on the interaction | Variant |
| --- | --- |
| decreasing interaction strength | L95F |
